Measurements as given in PubChem BioAssay AID1654 (Sanford-Burnham Center for Chemical Genomics, 2009).
This is a selection; strong and weak results do not stand in their true shares. Some results for these compounds are left out of this collection, so the calls shown say nothing about other tests. The source made the active and inactive calls. Rule as the data show it: active = inhibition above about 50%; inactive = the rest.

Amino acid sequences for entries named in this document (tags omitted).
UniProt P51452, whole entry: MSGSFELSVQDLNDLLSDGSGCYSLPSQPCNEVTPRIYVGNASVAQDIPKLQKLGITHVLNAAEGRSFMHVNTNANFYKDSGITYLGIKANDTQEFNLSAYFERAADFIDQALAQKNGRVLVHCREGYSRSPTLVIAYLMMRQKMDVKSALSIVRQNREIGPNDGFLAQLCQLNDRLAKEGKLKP

molecular target: Dual specificity protein phosphatase 3 (Homo sapiens) (UniProt P51452); assay: inhibition of human DUSP3 activity – biochemical, absorbance, uHTS, primary screen (AID 1654); conditions: recombinant VHR phosphatase, pNPP absorbance; at 13.3 µM; stronger effect = higher value

Row | SMILES | inhibition
1 | O=C(OC1CN2CCC1CC2)C(CO)(c1ccccc1)c1ccccc1 (stereo not drawn) | inactive: 2.4%
2 | COc1ccc(Br)c(C(=O)NCC2(N3CCCCC3)CCCCC2)c1 | inactive: 3.5%
3 | CN(C)c1cccc(C(=O)NCC2(N(C)C)CCCCC2)c1 | inactive: 13.6%
4 | CC(C)Oc1ccc(C(=O)NCC2(N(C)C)CCCCC2)cc1 | inactive: -1.2%
5 | CN(C)C1(CNC(=O)c2ccc(Br)cc2)CCCCC1 | inactive: -37.7%
6 | COc1cc(C(=O)NCC2(N(C)C)CCCCC2)c([N+](=O)[O-])cc1OC | inactive: -2%
7 | COc1ccc(Cl)cc1C(=O)NCC1(N(C)C)CCCCC1 | inactive: 5.3%
8 | COc1cccc(C(=O)NCC2(N3CCCCC3)CCCCC2)c1 | inactive: 5.3%
9 | O=C(NCC1(N2CCCCC2)CCCCC1)c1cccc(Cl)c1 | inactive: 29.7%
10 | CN(C)C1CCCC1OC(=O)C(O)(c1ccccc1)c1ccccc1 (stereo not drawn) | inactive: 3.4%
11 | CN(C)c1ccc(C(=O)NCC2(N(C)C)CCCCC2)cc1 | inactive: 41.1%
12 | Cc1ccccc1C(=O)NCC1(N2CCCCC2)CCCCC1 | inactive: 32.4%
13 | O=C(NCC1(N2CCCCC2)CCCCC1)c1cc(F)c(F)cc1Cl | inactive: 29.3%
14 | C=CCN1CCN(CCOC(=O)C(O)(c2ccccc2)c2ccccc2)CC1 | inactive: 40.7%
15 | O=C(NCC1(N2CCCCC2)CCCCC1)c1cccc(Br)c1 | inactive: 14.1%
16 | Cc1cc(C(=O)NCC2(N3CCCCC3)CCCCC2)ccc1[N+](=O)[O-] | inactive: 26.3%
17 | CCN1CCCC(OC(=O)C2(O)c3ccccc3C=Cc3ccccc32)C1 (stereo not drawn) | inactive: -8%
18 | COc1ccc(C(=O)NCC2(N(C)C)CCCCC2)cc1 | inactive: -27.7%
19 | O=C(NCC1(N2CCCCC2)CCCCC1)c1cc([N+](=O)[O-])ccc1Cl | inactive: -0.5%
20 | CN1[C@@H]2CC[C@H]1CC(OC(=O)C(O)(c1ccccc1)c1ccccc1)C2 (stereo partly drawn) | inactive: 16.5%
21 | CC(C)N1C(=O)CC2(CCN(CCOC(=O)C(O)(c3ccccc3)c3ccccc3)CC2)C1=O | inactive: 0.8%
22 | CCN(CC)CC(C)C(C)OC(=O)C(O)(c1ccccc1)c1ccccc1 (stereo not drawn) | inactive: 0.9%
23 | Cc1ccc(C(=O)NCC2(N3CCCCC3)CCCCC2)cc1 | inactive: -2.9%
